From patent US7585839B2, “Medical uses of intercellular communication facilitating compounds” (Zealand Pharma A/S, priority 2001, dated 2009) come the findings set out here.

Several values for one entry are separate records, joined by “and”; a condition that tells them apart may be missing. Equal values may be shown once.

The experiment has as its system reentry ventricular tachycardia. Briefly: Ventricular reentry arrhythmias in dogs after coronary artery occlusion. It is filed as in vivo. The following applies: second dog, throughout the testing period. The protocol: Three dogs were studied in the anesthetized, open chest state to facilitate electrode placement for mapping. α-chloralose was given as a bolus (200 mg/kg) and then a constant infusion at 8 mg/kg/hr (dissolved in polyethylene glycol, MW=200). The femoral vein and artery was cannulated for administration of fluid and drugs and for measurement of ascending aortic pressure, respectively.
The sinus node was clamped and the atrial appendage was paced with a programmable stimulator with constant current outputs at two times diastolic threshold. Pacing rate was ≧200 b/min to control heart rates. […] Endocardial Effective Refractory Period (ERP) was measured by the standard extrastimulus technique. Late ventricular diastolic threshold was measured during each intervention; the pacing current was four times threshold.
Test sites were chosen along the shaft of 16 pole needles (J. Kassell, Fayetteville, N.C.); each pole completely surrounds the needle shaft to prevent directionality of needle orientation from recording of adjacent Purkinje strands. Six bipolar electrograms (1 mm spacing) were recorded sequentially down the shaft of the needle by amplifying up to 1000 times, filtering from 3-1300 Hz and recording via oscilloscope during atrial pacing. Four intramural electrograms are recorded on each multipolar needle. […]

As for “Ac-D-Tyr-D-Pro-D-4Hyp-Gly-D-Ala-Gly-NH2 [Compound 2]”, the “Effective refractory period in the two sites of induction, unchanged” value is 163 ms and 144 ms.
